Values of other authors as cited in patent US20090324496A1, “Radioactive material for inhibiting cancer and preparation method thereof” (priority 2008, published 2009).
Where two headings read alike, the source gives them in different places.

Tested on: advanced breast cancer with over-expression of HER2
[1] = secondary clinical trial, 222 patients with no response to chemotherapy

In the case of “Herceptin: monoclonal antibody against Her-2/neu (Erb B-2) antigen in cancer cells”, the response rate (46 patients with advanced breast cancer and over-expression of HER2) is listed as 11.6%, the tumor response rate (as a single agent, patients with Her-2/neu over-expressing) is listed as “about 30%” and the control period [1] is listed as 9.1 months. The response rate [1] was 16%.
